# Measured values: patent US8158625B2, “Bicyclic indole-pyrimidine PI3K inhibitor compounds selective for P110 delta, and methods of use” (Genentech, Inc., priority 2009, dated 2012)
# Protein sequences, listed by entry. Tags and fused reporters are not part of them. Lines headed by an entry give the natural chain unless they say otherwise; changes in a name come on top.
# UniProt O00329: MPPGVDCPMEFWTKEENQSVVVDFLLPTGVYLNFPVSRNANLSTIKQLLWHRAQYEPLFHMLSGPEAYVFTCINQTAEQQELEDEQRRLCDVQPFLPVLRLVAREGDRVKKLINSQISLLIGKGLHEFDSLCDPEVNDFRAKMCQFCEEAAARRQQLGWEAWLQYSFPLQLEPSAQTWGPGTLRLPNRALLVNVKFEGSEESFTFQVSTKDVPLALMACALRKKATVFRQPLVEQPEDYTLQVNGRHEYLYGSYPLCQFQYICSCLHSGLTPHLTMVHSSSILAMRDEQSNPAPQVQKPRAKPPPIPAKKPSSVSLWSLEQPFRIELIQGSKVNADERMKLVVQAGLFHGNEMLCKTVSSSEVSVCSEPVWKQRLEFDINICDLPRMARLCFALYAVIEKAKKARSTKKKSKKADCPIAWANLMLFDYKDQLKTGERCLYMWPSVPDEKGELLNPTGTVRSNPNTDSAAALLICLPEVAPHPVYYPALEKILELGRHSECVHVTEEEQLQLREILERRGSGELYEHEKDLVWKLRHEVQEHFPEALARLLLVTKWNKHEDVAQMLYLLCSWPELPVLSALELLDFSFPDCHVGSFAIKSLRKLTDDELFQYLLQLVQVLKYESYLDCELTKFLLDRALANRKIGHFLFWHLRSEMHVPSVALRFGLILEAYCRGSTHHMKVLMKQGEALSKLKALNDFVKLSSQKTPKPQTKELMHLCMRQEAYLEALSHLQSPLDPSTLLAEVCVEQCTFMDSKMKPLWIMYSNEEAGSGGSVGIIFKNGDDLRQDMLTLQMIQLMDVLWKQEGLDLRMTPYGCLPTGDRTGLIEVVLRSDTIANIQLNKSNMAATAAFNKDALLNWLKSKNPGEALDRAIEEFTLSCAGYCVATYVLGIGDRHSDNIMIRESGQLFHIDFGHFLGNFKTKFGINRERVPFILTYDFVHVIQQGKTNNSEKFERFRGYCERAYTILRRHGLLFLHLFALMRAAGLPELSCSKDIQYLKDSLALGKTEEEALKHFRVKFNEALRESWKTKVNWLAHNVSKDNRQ
# Target: T1, p110 delta (Homo sapiens, UniProt O00329)
# T1 construct: purchased Upstate Group, Millipore; Dundee, UK
# Experiment: PI3K isoform inhibition assay (fluorescence polarization), p110 delta
# Type: biochemical
# Conditions: p110 delta binding IC50, Example 901
# Procedure: PI3K enzymatic activity was assayed by measuring the amount of product phosphatidylinositol 3,4,5-phosphate (PIP3) formed from substrate 4,5 phosphatidylinositol 4,5-phosphate (PIP2) using a fluorescence polarization displacement assay. The decrease in fluorescence polarization of a fluorescent PIP3 probe is measured as it is displaced from a PIP3-binding protein GRP-1 detector by PI3K-catalyzed product. Assays were conducted in 384-well black Proxiplates in the presence of 10 mM Tris (pH 7.5), 50 mM NaCl, 4 mM MgCl2, 5% glycerol, 25 μM ATP, 10 μM PIP2 (Echelon Biosciences), 0.05% 3-[(3-cholamidopropyl)dimethylammonio]-1-propanesulfonate, 1 mM dithiothreitol, and 2% DMSO. […] The reactions were stopped at timepoints that yielded a fixed change in fluorescence polarization consistent with initial rate conditions (typically 30 minutes), by the addition of 12.5 mM EDTA, 100 nM GRP-1 detector, and 5 nM tetramethylrhodamine-labeled PIP3 (TAMRA-PIP3; Echelon Biosciences). After 60 minutes of incubation at room temperature to allow equilibration of labeled and unlabeled PIP3 binding, the parallel and perpendicular components of the fluorescence emissions from each sample were measured at an excitation wavelength of 530 nm and an emission wavelength of 590 nm using an Envision fluorescent plate reader with a rhodamine filter (PerkinElmer Life and Analytical Sciences; Wellesley, Mass.). […]
smiles,measurement,value
"CN(C)C1CCN(Cc2cc3nc(-c4c[nH]c5ccccc45)nc(N4CCOCC4)c3s2)CC1 [Compound 101, 1-((2-(1H-indol-3-yl)-4-morpholinothieno[3,2-d]pyrimidin-6-yl)methyl)-N,N-dimethylpiperidin-4-amine]",IC50,4.9 nM
